Test results taken from patent US20230414735A1, “NEOANTIGENS AND METHODS OF THEIR USE” (priority 2016, published 2023).

Test system: HLA-A02:01+ T cells (CD8+ T cells)
Test: Immunogenicity assay: CD8+ T cell expansion with peptide-loaded monocyte-derived dendritic cells, multimer/tetramer staining
Assay type: cell-based, human
Details: HLA-A02:01^+ T cells co-cultured 10 days with peptide-loaded monocyte-derived dendritic cells; initial and validation multimer preparations; shown as examples of positive multimer staining (FIGS. 3-6)
Description: Immunogenicity assays are used to test the ability of each test peptide to expand T cells. Mature professional APCs are prepared for these assays in the following way. Monocytes are enriched from healthy human donor PBMCs using a bead-based kit (Miltenyi). Enriched cells are plated in GM-CSF and IL-4 to induce immature DCs. After 5 days, immature DCs are incubated at 37° C. with each peptide for 1 hour before addition of a cytokine maturation cocktail (GM-CSF, IL-1β, IL-4, IL-6, TNFα, PGE1β). Cells are incubated at 37° C. to mature DCs.
After maturation of DCs, PBMCs (either bulk or enriched for T cells) are added to mature dendritic cells with proliferation cytokines. Cultures are monitored for peptide-specific T cells using a combination of functional assays and/or tetramer staining Parallel immunogenicity assays with the modified and parent peptides allowed for comparisons of the relative efficiency with which the peptides expanded peptide-specific T cells.
Tetramer Staining. […] Cells are acquired on a FACS Calibur (Becton Dickinson) instrument, and are analyzed by use of Cellquest software (Becton Dickinson). […]
Immunogenicity assays were carried out to assess whether each peptide can elicit a T cell response by antigen-specific expansion. […] Several peptides from Table 3 were tested for their capacity to elicit CD8^+ T cell responses with multimer readouts as described. […]

KLVVVGACGV
antigen-specific (multimer-double-positive) CD8^+ T cells, multimer staining: antigen-specificity
